The values below come from patent US20220023257A1, “TREATMENT OF DEMENTIA-ASSOCIATED TAUOPATHIES” (Medizinische Hochschule Hannover (MHH), priority 2018, published 2022).

The chains behind the UniProt entries cited, without tags or fusion partners. Residues count along the entry.
UniProt P34969, 1-445 isoform P34969-2: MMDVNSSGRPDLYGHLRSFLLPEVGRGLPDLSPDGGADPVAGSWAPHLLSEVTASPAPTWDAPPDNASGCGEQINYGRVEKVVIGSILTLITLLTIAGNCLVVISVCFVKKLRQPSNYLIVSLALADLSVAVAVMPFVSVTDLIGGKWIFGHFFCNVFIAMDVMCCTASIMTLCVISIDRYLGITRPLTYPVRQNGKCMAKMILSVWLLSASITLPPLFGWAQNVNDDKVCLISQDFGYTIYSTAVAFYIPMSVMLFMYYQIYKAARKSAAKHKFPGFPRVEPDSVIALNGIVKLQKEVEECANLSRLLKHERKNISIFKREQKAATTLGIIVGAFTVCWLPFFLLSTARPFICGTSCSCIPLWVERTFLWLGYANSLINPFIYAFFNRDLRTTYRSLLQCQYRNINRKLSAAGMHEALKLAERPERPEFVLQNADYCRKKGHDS
UniProt P34969, whole entry: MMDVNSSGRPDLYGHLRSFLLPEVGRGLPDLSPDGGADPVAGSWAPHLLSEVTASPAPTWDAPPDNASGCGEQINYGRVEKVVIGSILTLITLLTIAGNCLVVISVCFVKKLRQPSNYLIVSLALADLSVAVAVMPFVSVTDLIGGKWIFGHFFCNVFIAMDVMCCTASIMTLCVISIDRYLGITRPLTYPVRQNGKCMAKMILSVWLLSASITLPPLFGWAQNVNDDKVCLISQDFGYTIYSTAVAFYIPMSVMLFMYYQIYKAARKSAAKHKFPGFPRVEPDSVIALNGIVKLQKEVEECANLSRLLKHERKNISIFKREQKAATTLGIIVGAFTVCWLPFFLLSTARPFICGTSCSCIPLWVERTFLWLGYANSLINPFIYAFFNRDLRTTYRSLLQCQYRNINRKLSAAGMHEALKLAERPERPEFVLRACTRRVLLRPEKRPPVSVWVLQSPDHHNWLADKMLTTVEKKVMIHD

Molecules are shown by their SMILES.

In assay [1] the target is T1, 5-HT7R (Homo sapiens, UniProt P34969). The note with it: literature: Mahe et al. 2004; Thomas et al. 1998; cited from earlier work.
In assay [2] the target is T1, 5-HT7R. The experiment in a line: 5-HT7R-induced Tau aggregation in HEK293 Tau-BiFC cells. In kind it is cell-based. Also on record: HA (N); expressed in transfected cells; host or cells: N1E-115 (neuroblastoma cells). The settings on record: HEK293 Tau-BiFC cells transfected with CFP-5-HT7R; maximum intensity projections.

As to `CC1CCN(CC[C@H]2CCCN2S(=O)(=O)c2cccc(O)c2)CC1` [SB-269970], the “mode of action at 5-HT7R” value at 5-HT7R [1] is 5-HT7R antagonist with full inverse agonist properties. For the same compound, on 5-HT7R [2], the “Tangles of Venus-Tau (VN-Tau) in 5-HT7R-transfected cells” value is reported as “disappeared”.
